Measured values published in PubChem BioAssay (NCI).
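Tested at 5 concentrations; 48 h exposure; 96-well plates; endpoints linearly interpolated, else capped at highest concentration. At the TGI there is no net growth.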

Key:
Assay in all cases: inhibition of tumour cell growth, NCI panel, 48 h
786-0 renal = test system: 786-0 renal
A498 renal = test system: A498 renal
A549 NSCLC = test system: A549 NSCLC
ACHN renal = test system: ACHN renal
BT-549 breast = test system: BT-549 breast
CAKI-1 renal = test system: CAKI-1 renal
COLO 205 colon = test system: COLO 205 colon
DU-145 prostate = test system: DU-145 prostate
EKVX NSCLC = test system: EKVX NSCLC
HCT-116 colon = test system: HCT-116 colon
HCT-15 colon = test system: HCT-15 colon
HOP-62 NSCLC = test system: HOP-62 NSCLC
HOP-92 NSCLC = test system: HOP-92 NSCLC
HS 578T breast = test system: HS 578T breast
HT29 colon = test system: HT29 colon
IGROV1 ovarian = test system: IGROV1 ovarian
K-562 leukemia = test system: K-562 leukemia
KM12 colon = test system: KM12 colon
LOX IMVI melanoma = test system: LOX IMVI melanoma
M14 melanoma = test system: M14 melanoma
MALME-3M melanoma = test system: MALME-3M melanoma
MCF7 breast = test system: MCF7 breast
MDA-MB-231 breast = test system: MDA-MB-231 breast
MDA-MB-435 = test system: MDA-MB-435
MDA-N = test system: MDA-N
MOLT-4 leukemia = test system: MOLT-4 leukemia
NCI-H23 lung = test system: NCI-H23 lung
NCI-H322M lung = test system: NCI-H322M lung
NCI-H460 lung = test system: NCI-H460 lung
NCI-H522 lung = test system: NCI-H522 lung
NCI/ADR-RES ovarian = test system: NCI/ADR-RES ovarian
OVCAR-3 ovarian = test system: OVCAR-3 ovarian
OVCAR-5 ovarian = test system: OVCAR-5 ovarian
OVCAR-8 ovarian = test system: OVCAR-8 ovarian
PC-3 prostate = test system: PC-3 prostate
RPMI-8226 leukemia = test system: RPMI-8226 leukemia
RXF 393 renal = test system: RXF 393 renal
SF-268 CNS = test system: SF-268 CNS
SF-295 CNS = test system: SF-295 CNS
SF-539 CNS = test system: SF-539 CNS
SK-MEL-2 melanoma = test system: SK-MEL-2 melanoma
SK-MEL-28 melanoma = test system: SK-MEL-28 melanoma
SK-MEL-5 melanoma = test system: SK-MEL-5 melanoma
SK-OV-3 ovarian = test system: SK-OV-3 ovarian
SN12C renal = test system: SN12C renal
SNB-19 CNS = test system: SNB-19 CNS
SNB-75 CNS = test system: SNB-75 CNS
SR leukemia = test system: SR leukemia
SW-620 colon = test system: SW-620 colon
T-47D breast = test system: T-47D breast
TK-10 renal = test system: TK-10 renal
U251 CNS = test system: U251 CNS
UACC-257 melanoma = test system: UACC-257 melanoma
UACC-62 melanoma = test system: UACC-62 melanoma
UO-31 renal = test system: UO-31 renal

Measured: TGI

C[As](C)(=O)O
> 100 µM: all assays above
